Settings: plasma, single dose of 4 sprays (10.8 mg THC and 10 mg CBD) oromucosal; for AUClast, Geometric LS Mean - Normal Renal Function / Cmax, Geometric LS Mean - Normal Renal Function: matched participants with normal renal function (eGFR >=90); for AUClast, Geometric LS Mean - Severe Renal Impairment / Cmax, Geometric LS Mean - Severe Renal Impairment: participants with severe renal impairment or ESRD (eGFR <30 mL/min/1.73 m^2)

SMILES	AUClast, Geometric LS Mean - Normal Renal Function [ng·h/mL]	Cmax, Geometric LS Mean - Normal Renal Function [ng/mL]	AUClast, Geometric LS Mean - Severe Renal Impairment [ng·h/mL]	Cmax, Geometric LS Mean - Severe Renal Impairment [ng/mL]
CCCCCc1cc(O)c2c(c1)OC(C)(C)[C@@H]1CCC(C(=O)O)=C[C@@H]21 [11-COOH-THC]	265	25.1	–	–
CCCCCc1cc(O)c2c(c1)OC(C)(C)[C@@H]1CCC(C)=C[C@@H]21 [THC, Δ-9-tetrahydrocannabinol, reference compound]	6.23	2.79	–	–
C=C(C)[C@@H]1CCC(CO)=C[C@H]1c1c(O)cc(CCCCC)cc1O [7-OH-CBD]	1.66	0.617	7.62	–
C=C(C)[C@@H]1CCC(C)=C[C@H]1c1c(O)cc(CCCCC)cc1O [CBD, Cannabidiol, reference compound]	–	–	4.82	1.17
CCCCCc1cc(O)c2c(c1)OC(C)(C)[C@@H]1CCC(CO)=C[C@@H]21 [11-OH-THC]	15	3.42	47.9	7.28
C=C(C)[C@@H]1CCC(C(=O)O)=C[C@H]1c1c(O)cc(CCCCC)cc1O [7-COOH-CBD]	208	10.4	–	–

Reference: patent publication US20250262228A1, “TREATMENT OF SPASTICITY AND PAIN IN RENALLY-IMPAIRED PATIENTS” (Jazz Pharmaceuticals Research UK Limited., priority 2022, published 2025)
